{"source": "patent US12691112B2", "about": "“FGFR tyrosine kinase inhibitors for the treatment of urothelial carcinoma” (Janssen Pharmaceutica NV, priority 2019, dated 2026)", "test_system": "subjects with metastatic or surgically unresectable urothelial cancer", "note": "Like-named read-outs stand apart in the source and are kept apart here."}
{"smiles": "COc1cc(OC)cc(N(CCNC(C)C)c2ccc3ncc(-c4cnn(C)c4)nc3c2)c1", "note": "[erdafitinib, N-(3,5-dimethoxy-phenyl)-N′-(1-methylethyl)-N-[3-(1-methyl-1H-pyrazol-4-yl)quinoxalin-6-yl]ethane-1,2-diamine]", "values": [{"measurement": "Serious treatment-emergent: Musculoskeletal and connective tissue disorders", "setting": "6 mg continuous, n = 78", "result": "4 (5) no. (%)"}, {"measurement": "Serious treatment-emergent: Musculoskeletal and connective tissue disorders", "setting": "8 mg continuous, n = 99", "result": "0 no. (%)"}, {"measurement": "Serious treatment-emergent: Musculoskeletal and connective tissue disorders", "setting": "10 mg intermittent, n = 33", "result": "2 (6) no. (%)"}]}
